# Source: PubChem BioAssay
# Sampled rows, rich in hits. Any-hit rate of the full collection: about 3.6%.
# PI5P4K alpha inh: blocks human PI5P4K alpha kinase activity; AID 652105; max response, %; PI5P4Kalpha enzyme, ADP-Glo luminescence, 60 min; stronger effect = lower value; P48426; hit rate 1.2% among 330,000; active = max response of -50% or lower; inconclusive = between -30% and -50%; inactive = -30% or higher; note: value at the top dose of about 77 µM; % is set by controls: 0 for no effect and ±100 for the full control effect
#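 Compounds were pin-transferred onto PI5P4Kalpha and substrate in HEPES pH 7.4 buffer with EGTA, CHAPS and 5% DMSO. ATP (5 microM final) started the reaction, which ran 60 minutes at room temperature before ADP-Glo detection.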
# VDR inhibitor: vitamin D3 receptor (human) inhibition. P11473. VDR-SRC2-3 peptide fluorescence polarization, 2 h. Potency, µM, without a hit: max response, negative = inhibition, hits mostly inhibitors. hit rate 0.93% among 400,000; note: potency is the fitted concentration of half-maximal effect; % is set by controls: 0 for no effect and ±100 for the full control effect
#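 After 23 nl compound addition and a short centrifugation, plates sat for 2 hours at ambient temperature; polarization of fluorescence then indicated loss of VDR binding to peptide SRC2-3.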
# GCN5L2 inh: blocks human GCN5L2 histone acetyltransferase | Potency, µM (titrated, usually from 58.9 µM), without a hit: at the top dose activity change, negative = inhibition, actives largely listed as inhibitors | hit rate 0.21% among 390,000 | GCN5L2 HAT assay, ThioGlo1 CoA-SH fluorescence | Q92830; note: potency is the fitted concentration of half-maximal effect; % is set by controls: 0 for no effect and ±100 for the full control effect
#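 GCN5L2 (20nM final) in 50mM HEPES, 0.1mM EDTA pH 7.5, 0.01% Tween-20 was preincubated 15 min at room temperature with compound, then given ThioGlo1 (50uM), H3(1-25) peptide (75uM) and acetyl-CoA (70uM); CoA-thiol fluorescence (Ex340/Em540) was read at 0 and 20 min.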
# Rango release inh: inhibition of RanGTP-driven Rango-importin beta dissociation. O95149+P62826. Biochemical FRET Rango-importin beta, RanGTP-induced dissociation. Potency, µM (series often up to 46.1 µM), for inactives: at the top dose activity change, negative = inhibition. hit rate 0.071% among 340,000; calls by dose curve; note: potency is the fitted concentration of half-maximal effect; % of control where 0% means no effect; nearly all actives have a fitted effect of over 45% in size
#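 FRET read at 45 min, room temperature: inhibitors block the CFP/YFP signal rise when RanGTP (0.6 uM Ran, 2 mM GTP, 0.2 uM RCC1) frees Rango (0.1 uM) from importin beta (0.25 uM). Pre-read after 5 min compound exposure flags interference.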
# Rango-impB inh: prevents formation of the Rango-importin beta complex. Rango CFP/YFP FRET sensor + importin beta, 45 min. Potency, µM (top dose mostly 92.2 µM), without a hit: at the top dose inhibition of complex formation. Q14974. hit rate 0.031% among 340,000; calls by dose curve;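 note: potency is the fitted concentration of half-maximal effect; 0% = DMSO wells and 100% = buffer wells lacking importin beta; nearly all actives have a fitted effect of over 15% in size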
#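 FRET biosensor Rango (snurportin 1 IBB between N-terminal EYFP and C-terminal Cerulean), 50 nM in PBS/1 mM DTT/0.02% Tween-20/0.1% BSA, preincubated 5 min RT with compound; 0.125 microM importin beta added, 45 min RT, CFP/YFP FRET ratio read.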
# PLK1 PBD block: inhibitors of human PLK1 polo-box domain binding; P53350; Plk1 PBD binding of FITC phosphopeptide, fluorescence polarization; Potency, µM, for inactives: max response, negative = inhibition, hits mostly inhibitors; hit rate 2.8% among 360,000; AID 720504; note: potency is the fitted concentration of half-maximal effect; series mostly up to about 57 µM; % is set by controls: 0 for no effect and ±100 for the full control effect; nearly all actives have a fitted effect of over 65% in size
# * marks the source's active call; other numbers are inactive results; ? = inconclusive; / = not tested or not shown; ! = not active in a repeat; [ ] = dose if it differs, or a comment. Unless noted, calls come from the whole dose curve; as a rule, active = well fitted curve in the direction sought with a large enough effect; inconclusive = small, poorly fitted or top-dose-only effect, or another doubt; inactive = no such curve, though single readings can be large; an effect the other way counts as inactive or inconclusive.
SMILES,PI5P4K alpha inh,VDR inhibitor,GCN5L2 inh,Rango release inh,Rango-impB inh,PLK1 PBD block
COCC(=O)N1c2nc(-c3ccco3)nn2C2(CCCCC2)[C@@H]2CCCC[C@@H]21,/,5%,-7%,/,/,/
O=c1cc(-c2ccccc2Cl)oc2ccc([N+](=O)[O-])c(O)c12,-7,-9%,-10%[88.6 µM],-4%,-5%,?
O=c1cc(-c2ccccc2Cl)oc2c([N+](=O)[O-])c(O)cc(O)c12,-96*,?,-12%[88.6 µM],5%,-2%,-27%
O=C(CN1C(=O)COc2ccc(S(=O)(=O)N3CCCC3)cc21)NCCc1ccc(Cl)cc1,/,7%,2%,/,/,/
CCOC(=O)c1scc(-c2ccccc2)c1S(=O)(=O)N1CCN(c2ccccc2OC)CC1,/,10%,-21%,/,/,/
CCOC(=O)Cc1nnc(NC(=O)C(CC)Sc2nc(C)cc(=O)[nH]2)s1 (stereo not drawn),-12,?,-6%,-2%,-5%,21µM*
O=C(NCCCO)Nc1ccc2nc(-c3ccco3)c(-c3ccco3)nc2c1,/,/,16µM*,/,/,/
O=C(Nc1ccc(N2CCOCC2)cc1)Nc1ccc2nc(-c3ccco3)c(-c3ccco3)nc2c1,/,17%,-13%,?,?,?
CC(C)C[C@H](N)C(=O)N[C@H](C(=O)N[C@H](C(=O)N[C@@H](Cc1ccc(O)cc1)C(=O)N1CCC[C@H]1C(=O)N[C@@H](Cc1c[nH]c2ccccc12)C(=O)N[C@H](C(=O)N[C@@H](CCC(N)=O)C(=O)N[C@@H](CCCN=C(N)N)C(=O)O)[C@@H](C)O)C(C)C)C(C)C,/,7%,-9%,/,/,/
CC(=O)Nc1ncnc2c1c(-c1ccc(Cl)cc1)nn2C(C)(C)C,1,-31%,-13%,10%,0%,-6%
CC(=O)N(C(C)=O)c1ncnc2c1c(-c1ccc(Cl)cc1)nn2C(C)(C)C,-8,50µM*,-15%,13%,1%,-7%
CCNc1cc2c(cc1O)CCC1C2CCC2(C)C(O)CCC12 (stereo not drawn),-1,79µM*,/,-5%,0%,?
CO/N=C(/C(=O)N[C@@H]1C(=O)N2C(C(=O)O)=C(CSC(=O)c3ccco3)CSC12)c1csc(N)n1 (stereo partly drawn),/,?,1%,/,/,/
Cc1cc(C)cc(C(=O)NCCCc2ccccc2)c1,0,3%,-1%,4%,-2%,5%
Cc1ccc(C(=O)NCCCc2ccccc2)c(C)c1,?,0%,-4%,5%,0%,24µM*
COc1ccc2c(c1)CC(C(=O)NCCCN1CCN(c3ccc(F)cc3)CC1)CO2 (stereo not drawn),/,3%,2%,/,/,/
O=C(/C=C/c1cc(Br)ccc1F)OCC(=O)N1CCCC1,8,-10%,-1%,5%,1%,2%
CC(C)CCNC(=O)NC(=O)COC(=O)/C=C/c1cc(Br)ccc1F,-62*,?,-6%,9%,-3%,15µM*
CC(=O)c1ccc(NC(=O)CN2C(=O)c3cccnc3Sc3ccccc32)cc1,/,4%,-7%,/,/,/
CC(C)(C)N1C(=O)Cc2c1nc(N)c1c(N)nc(N3CCCCC3CO)c(C#N)c21 (stereo not drawn),-58*,?,14%,?,?,-19%
COC(=O)Nc1nnc(-c2ccncc2)s1,/,-26%,-15%,-3%,2%,27µM*
Cc1ccc(NC(=O)Nc2nnc(-c3ccncc3)s2)cc1C,-2,-1%,-5%,-5%,?,-3%
COc1ccc2ccccc2c1C(O)c1nccn1C (stereo not drawn),/,-18%,-1%,?,?,24µM*
Cn1c(=O)c2c(SCC(=O)N3CCc4ccccc43)nc(-c3cccc(F)c3)nc2n(C)c1=O,/,11%,-13%,/,/,/
CC1CCc2c(sc(NC(=O)Cn3nc(C(F)(F)F)c4c3CCCCC4)c2C#N)C1 (stereo not drawn),/,-21%,?,-4%,4%,27µM*

# Random excerpt: 2 entries already listed
SMILES,PI5P4K alpha inh,VDR inhibitor,GCN5L2 inh,Rango release inh,Rango-impB inh,PLK1 PBD block
CCNc1cc2c(cc1O)CCC1C2CCC2(C)C(O)CCC12 (stereo not drawn),-1,79µM*,/,-5%,0%,?
Cn1c(=O)c2c(SCC(=O)N3CCc4ccccc43)nc(-c3cccc(F)c3)nc2n(C)c1=O,/,11%,-13%,/,/,/

# Returning to the listing, starting three compounds before the break.
SMILES,PI5P4K alpha inh,VDR inhibitor,GCN5L2 inh,Rango release inh,Rango-impB inh,PLK1 PBD block
COc1ccc2ccccc2c1C(O)c1nccn1C (stereo not drawn),/,-18%,-1%,?,?,24µM*
Cn1c(=O)c2c(SCC(=O)N3CCc4ccccc43)nc(-c3cccc(F)c3)nc2n(C)c1=O,/,11%,-13%,/,/,/
CC1CCc2c(sc(NC(=O)Cn3nc(C(F)(F)F)c4c3CCCCC4)c2C#N)C1 (stereo not drawn),/,-21%,?,-4%,4%,27µM*
CC1CCc2c(sc(NC(=O)c3nc4ncccn4n3)c2C#N)C1 (stereo not drawn),-24,?,0%,?,-8%,4.7µM*
N#Cc1c(NC(=O)c2cnn3cccnc23)sc2c1CCCC2,-11,3%,2%,5%,2%,24µM*
N#Cc1c(NC(=O)c2nc3ncccn3n2)sc2c1CCCCC2,3,6%,-3%,2%,1%,-17%
Cc1ccc(OCCn2nnc3sc4c(c3c2=O)CCC(C)C4)cc1 (stereo not drawn),/,0%,-5%,/,/,/
COc1ccc(-n2c(-c3ccc(C)cc3)cc3c2CC(C)(C)CC3=O)c(OC)c1,/,-10%,-9%,/,/,/
COc1ccc(C)cc1NC(=O)C(OC(=O)c1ccc([N+](=O)[O-])o1)c1ccccc1 (stereo not drawn),-15,-5%,-9%,-13%,-1%,27µM*
COc1ccc(C)cc1NC(=O)C(OC(=O)c1cnccn1)c1ccccc1 (stereo not drawn),2,-11%,0%,-23%,2%,1%
COc1ccc(OC)c(S(=O)(=O)NCCc2csc3nc(-c4ccccc4)nn23)c1,/,-5%,-4%,/,/,/
CCOC(=O)C1=C(O)c2ccccc2C(=O)/C1=C\c1ccc(CC)cc1,/,3.5µM*,-15%,?,?,3µM*
CCOC(=O)C1CCCN(c2nc3c(S(=O)(=O)c4ccc(C)c(C)c4)nnn3c3ccc(Cl)cc23)C1 (stereo not drawn),/,?,-18%,/,/,/
CSc1nnc2c(n1)OC1(Nc3ccccc3-2)C(=O)Nc2ccccc21 (stereo not drawn),-26,-17%,2%,12%,0%,27µM*
NC(=O)CC(NC(=O)Cc1cccc2ccccc12)c1ccc(NC2CCN(Cc3ccccc3)CC2)c([N+](=O)[O-])c1 (stereo not drawn),-4,-7%,-4%,-3%,2%,16%
NC(=O)CC(NC(=O)Cc1ccc(Br)cc1)c1ccc(NC2CCN(Cc3ccccc3)CC2)c([N+](=O)[O-])c1 (stereo not drawn),2,3%,-4%,0%,52µM*,43%
CC1=C(/C=C/C(C)=C/C=C/C(C)=C/C(=O)O)C(C)(C)CCC1O (stereo not drawn),/,71µM*,-3%,/,/,/
CC1=C(/C=C/C(C)=C/C=C/C(C)=C/C(=O)O)C(C)(C)CCC1,-1,45µM*!,32µM*!,6%,4%,?
CC1=C(/C=C/C(C)=C/C=C/C(C)=C/C(=O)Oc2c(C)c(C)c3c(c2C)CC[C@@](C)(CCC[C@H](C)CCC[C@H](C)CCCC(C)C)O3)C(C)(C)CCC1,/,-4%,-9%,/,/,/
